Assays:
[1] = target: T1, Histone-lysine N-methyltransferase EHMT2 (Homo sapiens, UniProt Q96KQ7)
T1 sequence (Q96KQ7 whole entry): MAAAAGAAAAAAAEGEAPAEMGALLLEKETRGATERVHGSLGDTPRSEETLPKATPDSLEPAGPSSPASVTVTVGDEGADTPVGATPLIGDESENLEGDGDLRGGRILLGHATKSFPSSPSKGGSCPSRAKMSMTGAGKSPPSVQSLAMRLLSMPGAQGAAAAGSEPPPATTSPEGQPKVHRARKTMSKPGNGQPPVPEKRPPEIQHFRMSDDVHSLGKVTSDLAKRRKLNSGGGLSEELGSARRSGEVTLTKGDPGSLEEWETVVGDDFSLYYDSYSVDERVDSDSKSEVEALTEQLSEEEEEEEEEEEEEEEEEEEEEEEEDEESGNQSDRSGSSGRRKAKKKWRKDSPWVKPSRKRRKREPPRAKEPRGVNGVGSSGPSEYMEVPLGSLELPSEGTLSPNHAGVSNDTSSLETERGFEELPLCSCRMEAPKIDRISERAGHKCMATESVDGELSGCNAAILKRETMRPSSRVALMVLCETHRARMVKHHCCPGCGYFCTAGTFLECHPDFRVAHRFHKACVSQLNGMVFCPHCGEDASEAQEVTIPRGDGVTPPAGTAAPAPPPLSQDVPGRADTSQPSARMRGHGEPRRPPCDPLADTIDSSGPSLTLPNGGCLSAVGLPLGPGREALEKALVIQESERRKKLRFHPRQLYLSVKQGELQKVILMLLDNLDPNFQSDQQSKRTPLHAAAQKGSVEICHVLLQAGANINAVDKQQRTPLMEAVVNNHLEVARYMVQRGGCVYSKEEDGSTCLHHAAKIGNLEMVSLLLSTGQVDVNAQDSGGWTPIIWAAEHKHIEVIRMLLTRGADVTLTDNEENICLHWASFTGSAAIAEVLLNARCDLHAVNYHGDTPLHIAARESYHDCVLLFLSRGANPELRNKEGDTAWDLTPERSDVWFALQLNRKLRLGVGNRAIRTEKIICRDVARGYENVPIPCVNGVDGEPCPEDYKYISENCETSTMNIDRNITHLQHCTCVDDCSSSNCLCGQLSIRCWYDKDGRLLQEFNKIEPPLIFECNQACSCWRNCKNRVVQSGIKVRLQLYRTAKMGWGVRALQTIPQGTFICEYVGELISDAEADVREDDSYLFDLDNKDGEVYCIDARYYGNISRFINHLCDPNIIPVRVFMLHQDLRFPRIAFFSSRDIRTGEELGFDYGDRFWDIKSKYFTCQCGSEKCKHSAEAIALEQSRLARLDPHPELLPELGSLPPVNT

[2] = target: T1, Histone-lysine N-methyltransferase EHMT2; assay: Inhibition of G9a by Alpha screen assay

Structure (SMILES): COc1cc2nc(N3CCN(C)CC3)nc(NC3CCN(C)CC3)c2cc1OC
- IC50 [1]: 680 nM
- IC50 [2]: 200 nM

Structure (SMILES): COc1cc2nc(N3CCCN(C)CC3)nc(NC3CCN(C)CC3)c2cc1OC
- IC50 [2]: 230 nM
